Measurements: patent CN114685674A

By UniProt entry, the sequences of proteins in these tests, tags left out. Chains listed by the source or under a name are the forms on record and can include a tag or linker.
UniProt P15692, other isoform, or with tags, fused parts or gaps: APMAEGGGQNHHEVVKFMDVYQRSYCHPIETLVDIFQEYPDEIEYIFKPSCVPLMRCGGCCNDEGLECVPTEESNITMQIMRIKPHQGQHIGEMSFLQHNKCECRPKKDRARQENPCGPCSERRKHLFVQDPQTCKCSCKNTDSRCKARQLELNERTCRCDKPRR

Target: VEGF165 (UniProt P15692)
Assay: cell-based or functional assay

avastin(贝伐单抗) (antibody)
HUVEC细胞增殖抑制 EC50: 0.408 nM
